Assay results reported in ChEMBL document CHEMBL2440112, “Structure-activity relationships of the aromatic site in novel anticonvulsant pyrrolo[1,2-a]pyrazine derivatives” (Bioorg Med Chem Lett, 2013).

Organism: Mus musculus
Assay: Protective index, ratio of TD50 for albino mouse minimal clonic seizure model to ED50 for albino mouse assessed as protection against 6 Hz psychomotor seizure
Format: functional

CC[C@@H](C(N)=O)N1CCCC1=O [LEVETIRACETAM]
Ratio TD50/ED50: >25.8
